Laboratory results published in patent US20110319287A1, “MODULATOR ASSAY” (ADDEX PHARMA S.A., priority 2009, published 2011).

Tested on: TNF-induced relocalisation of EYFP-TRADD (TNFR1-containing complex I) in HeLa cells
Assay: TNF-mediated relocation of fluorescently tagged TRADD in Clone #49-E2 HeLa cells, 384-well (Example 2)
Assay type: cell-based, human
Settings: FIG. 11
Experimental: In another embodiment of the invention, the fluorescently labelled reporter molecule EYFP-TRADD was transformed into HeLa cells as described in Example 1 to produce clone #49-E2 cells. The following experimental procedure to detect the reporter molecule in the presence of absence of a “test” compound (or molecule, as described below) was conducted.
On day 1, 10^3 cells per well were plated in thin glass bottom 384 wells plate in 50 μl of culture media (DMEM glutamax, 10% FBS, peni-strep, geneticin, hygromycin). The cells were incubated overnight at 37° C. On day 2, media was aspirated, and 35 μl of warm DMEM, 2, 5% FBS, HEPES 10 mM added. Then, 15 μl of 4× the test compound diluted in DMEM, 2, 5% FBS, HEPES 10 mM was added to cells using a Biomek laboratory automation workstation (Beckman-Coulter). This was incubated at room temperature for 1.5 min. Then, 20 μl of 4×TNF (or TL1A or IL1b) diluted in DMEM, 2, 5% FBS, HEPES 10 mM was added to the cells using the Biomek workstation, and the cells were incubated at 37° C. for 15 min. The cells were washed three times with PBS 1× using an Embla 384 Cell Washer (Molecular Devices). […] Readings were then taken on the Scientific Cellomics ArrayScan HCS Reader automated microscope system as used in Example 1.

For “TNF: recombinant human TNF-α from Peprotech, Cat N° 300-01A”, the “TNF-dependent relocalisation of EYFP-TRADD” value was “dose-dependent relocalisation”.
